Reference: US20230109708A1, “Cellular Uptake” (Axcess (UK) Ltd, priority 2020, published 2023)

Assays:
Caco-2 cells [1] = assay: FITC-albumin uptake after chlorpromazine, cells in suspension, plate reader (Example 11); assay type: cell-based; settings: chlorpromazine at both high and low concentrations, all chenodeoxycholate concentrations
Description: 0.4 ml suspension was dispensed into each of eleven 1.5 ml plastic Eppendorf vials, and 40 ul of medium (without FBS) containing chlorpromazine at different concentrations was added to each vial, followed by incubation at 37° C. for 20 minutes.

Caco-2 cells [2] = assay: FITC-albumin uptake after chlorpromazine, adherent cells, plate reader (Example 10); assay type: cell-based; settings: cells adherent to wells; chlorpromazine at both high and low concentrations; all chenodeoxycholate concentrations

CN(C)CCCN1c2ccccc2Sc2ccc(Cl)cc21 [Chlorpromazine, chlorpromazine]
effect on uptake of FITC-BSA stimulated by the bile salt (Caco-2 cells [1]): inhibits uptake | effect on uptake of FITC-BSA stimulated by the bile salt (Caco-2 cells [2]): inhibits uptake
